According to BindingDB's records for doi:10.1021/cb400150c (The University of Tokyo, 2013):

molecular target: T1, Ectonucleotide pyrophosphatase/phosphodiesterase family member 2 (Mus musculus, UniProt Q9R1E6); test: ATX Inhibitory Selectivity Test
Protocol: Inhibitory activities of hit compounds towards ENPP1-5 were calculated using pNP-TMP, and the inhibitory activities of hit compounds towards ENPP6 and 7 were calculated using pNPPC. The final concentration of these two absorption-based substrates was 100uM. Assay buffer (ENPP buffer, 37uL) and 500uM PNP-TMP or pNPPC (20uL) were dispensed into the 96-well microplate. 30uM samples (33uL) were added, followed by ENPP1-7 solution (10uL) into each well. Each well contained a total of 100uL. The plate was incubated for 2 hours and aborbance (405nm) was measured with a microplate reader.

Compound | IC50 [nM]
CN1CCN(C2=NC(=O)/C(=C/c3ccc(F)c(F)c3)S2)CC1 [Disubstituted aryl-Me ATX inhibitor 1] | 4200
CN1CCN(C2=NC(=O)/C(=C/c3ccc(Cl)cc3Cl)S2)CC1 [Disubstituted aryl-Me ATX inhibitor 2] | 3000
CN1CCN(C2=NC(=O)/C(=C/c3c(Cl)cccc3Cl)S2)CC1 [Disubstituted aryl-Me ATX inhibitor 5] | 11000
CN1CCN(C2=NC(=O)/C(=C/c3ccc(Br)c(Br)c3)S2)CC1 [Disubstituted aryl-Me ATX inhibitor 6] | 200
CN1CCN(C2=NC(=O)/C(=C/c3cc(C(C)(C)C)cc(C(C)(C)C)c3)S2)CC1 [Disubstituted aryl-Me ATX inhibitor 8] | 45
CN1CCN(C2=NC(=O)/C(=C/c3ccc(F)cc3)S2)CC1 [Monosubstituted aryl-Me ATX inhibitor 2] | 16000
CN1CCN(C2=NC(=O)/C(=C/c3ccccc3Cl)S2)CC1 [Monosubstituted aryl-Me ATX inhibitor 3] | 20000
CN1CCN(C2=NC(=O)/C(=C/c3ccc(Br)cc3)S2)CC1 [Monosubstituted aryl-Me ATX inhibitor 6] | 450
CN1CCN(C2=NC(=O)/C(=C/c3ccc(I)cc3)S2)CC1 [Monosubstituted aryl-Me ATX inhibitor 7] | 170
Cc1ccc(/C=C2\SC(N3CCN(C)CC3)=NC2=O)cc1 [Monosubstituted aryl-Me ATX inhibitor 8] | 1400
CN1CCN(C2=NC(=O)/C(=C/c3cc(C(F)(F)F)cc(C(F)(F)F)c3)S2)CC1 [Monosubstituted aryl-Me ATX inhibitor 9] | 260
CN1CCN(C2=NC(=O)/C(=C/c3ccc(C(F)(F)F)cc3)S2)CC1 [Monosubstituted aryl-Me ATX inhibitor 10] | 210

molecular target: T1, Ectonucleotide pyrophosphatase/phosphodiesterase family member 2; test: not given

Compound | IC50 [nM]
COc1ccc(C(=O)/C=C/c2ccc(ON=O)cc2)cc1CSCC(=O)O [ATX inhibitor 2] | 420
NS(=O)(=O)c1cc(C(=O)OCc2ncc(-c3ccc(F)cc3)o2)ccc1Cl [ATX inhibitor 3] | 560
Cc1cc(C)c(C)c(S(=O)(=O)N2CCN(C(=O)NCCCn3ccnc3)CC2)c1C [ATX inhibitor 4] | 1100
NS(=O)(=O)c1ccc(Nc2nc(-c3ccc(O)c(O)c3)cs2)cc1 [ATX inhibitor 6] | 1000
CCCCCCCN=Cc1c(O)n(-c2ccc(F)cc2)c(=O)[nH]c1=O [ATX inhibitor 7] | 250
Cc1nc2ccccn2c(=O)c1Cc1ccc(Cl)cc1 [ATX inhibitor 8] | 300
CCN1CCN(C2=NC(=O)/C(=C/c3ccc(Cl)cc3)S2)CC1 [ATX inhibitor 9] | 420
O=C1N=C(N2CCNCC2)S/C1=C\c1ccc(Cl)c(Cl)c1 [ATX inhibitor 10 analogue 1] | 170
O=C1N=C(N2CCN(CCCCS(=O)(=O)O)CC2)S/C1=C\c1ccc(Cl)c(Cl)c1 [ATX inhibitor 10 analogue 3] | 230
O=C1N=C(N2CCN(Cc3ccc(B(O)O)cc3)CC2)S/C1=C\c1ccc(Cl)c(Cl)c1 [ATX inhibitor 10 analogue 6] | 22
O=C1N=C(N2CCN(Cc3ccc(C(=O)O)cc3)CC2)S/C1=C\c1ccc(Cl)c(Cl)c1 [ATX inhibitor 10 analogue 7] | 25
O=C(O)CCCN1CCN(C2=NC(=O)/C(=C/c3ccc(Cl)c(Cl)c3)S2)CC1 [ATX inhibitor 10 analogue 9] | 400
O=C1N=C(N2CCN(CCCS(=O)(=O)O)CC2)S/C1=C\c1ccc(Cl)c(Cl)c1 [ATX inhibitor 10 analogue 10] | 420
O=C1N=C(N2CCN(Cc3cccnc3)CC2)S/C1=C\c1ccc(Cl)c(Cl)c1 [ATX inhibitor 10 analogue 13] | 260
O=C1N=C(N2CCN(Cc3ccncc3)CC2)S/C1=C\c1ccc(Cl)c(Cl)c1 [ATX inhibitor 10 analogue 14] | 180
COC(=O)C1=C(N)N(c2ccc(S(N)(=O)=O)cc2)C2=C(C(=O)CCC2)C1c1ccc(OC)c(OC)c1 (stereo unspecified) [ATX inhibitor 11] | 670
C[C@]12CCC(=O)C=C1CC[C@H]1[C@@H]3CC[C@H](OC(=O)CCC(=O)NCCc4cnc[nH]4)C3CC[C@@H]12 (stereo partly specified) [ATX inhibitor 12] | 1500
CN(C)P(=NC(=S)Nc1cccc(S(N)(=O)=O)c1)(c1ccncc1)N(C)C [ATX inhibitor 15] | 790
O=C1N=C(N2CCN(Cc3ccccc3B(O)O)CC2)S/C1=C\c1ccc(Cl)c(Cl)c1 [US8551988, 64] | 580
